# Results from patent US20100105722A1, “Substituted 4,5,6,7-tetrahydrothienopyridines as KCNQ2/3 Modulators” (GRUENENTHAL GmbH, priority 2008, published 2010).
# By UniProt entry, the sequences of proteins in these tests, tags left out.
# UniProt O43525, whole entry: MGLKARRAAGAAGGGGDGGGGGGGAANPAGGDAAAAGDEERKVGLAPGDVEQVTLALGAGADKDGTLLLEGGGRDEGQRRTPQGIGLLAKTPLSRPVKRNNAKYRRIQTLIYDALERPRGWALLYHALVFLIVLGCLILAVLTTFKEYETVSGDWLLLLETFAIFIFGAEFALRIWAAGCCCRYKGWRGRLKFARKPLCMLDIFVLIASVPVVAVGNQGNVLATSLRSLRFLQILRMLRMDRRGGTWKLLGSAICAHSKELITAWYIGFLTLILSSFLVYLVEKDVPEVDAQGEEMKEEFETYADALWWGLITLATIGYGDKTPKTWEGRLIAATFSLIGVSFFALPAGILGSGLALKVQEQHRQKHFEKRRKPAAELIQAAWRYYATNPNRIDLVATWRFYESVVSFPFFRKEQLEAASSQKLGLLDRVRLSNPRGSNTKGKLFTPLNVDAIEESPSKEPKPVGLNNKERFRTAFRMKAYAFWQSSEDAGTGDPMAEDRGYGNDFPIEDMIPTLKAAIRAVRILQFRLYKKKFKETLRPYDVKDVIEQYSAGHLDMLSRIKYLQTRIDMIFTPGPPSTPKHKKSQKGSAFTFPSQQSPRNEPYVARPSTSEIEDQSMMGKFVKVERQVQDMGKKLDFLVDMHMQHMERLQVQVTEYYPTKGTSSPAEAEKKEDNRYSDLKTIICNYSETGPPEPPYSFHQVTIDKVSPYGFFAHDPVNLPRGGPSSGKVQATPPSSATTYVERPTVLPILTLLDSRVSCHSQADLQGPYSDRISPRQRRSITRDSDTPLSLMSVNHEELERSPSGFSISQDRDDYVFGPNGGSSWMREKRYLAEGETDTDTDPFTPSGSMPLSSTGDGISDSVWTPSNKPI
# UniProt O43526, whole entry: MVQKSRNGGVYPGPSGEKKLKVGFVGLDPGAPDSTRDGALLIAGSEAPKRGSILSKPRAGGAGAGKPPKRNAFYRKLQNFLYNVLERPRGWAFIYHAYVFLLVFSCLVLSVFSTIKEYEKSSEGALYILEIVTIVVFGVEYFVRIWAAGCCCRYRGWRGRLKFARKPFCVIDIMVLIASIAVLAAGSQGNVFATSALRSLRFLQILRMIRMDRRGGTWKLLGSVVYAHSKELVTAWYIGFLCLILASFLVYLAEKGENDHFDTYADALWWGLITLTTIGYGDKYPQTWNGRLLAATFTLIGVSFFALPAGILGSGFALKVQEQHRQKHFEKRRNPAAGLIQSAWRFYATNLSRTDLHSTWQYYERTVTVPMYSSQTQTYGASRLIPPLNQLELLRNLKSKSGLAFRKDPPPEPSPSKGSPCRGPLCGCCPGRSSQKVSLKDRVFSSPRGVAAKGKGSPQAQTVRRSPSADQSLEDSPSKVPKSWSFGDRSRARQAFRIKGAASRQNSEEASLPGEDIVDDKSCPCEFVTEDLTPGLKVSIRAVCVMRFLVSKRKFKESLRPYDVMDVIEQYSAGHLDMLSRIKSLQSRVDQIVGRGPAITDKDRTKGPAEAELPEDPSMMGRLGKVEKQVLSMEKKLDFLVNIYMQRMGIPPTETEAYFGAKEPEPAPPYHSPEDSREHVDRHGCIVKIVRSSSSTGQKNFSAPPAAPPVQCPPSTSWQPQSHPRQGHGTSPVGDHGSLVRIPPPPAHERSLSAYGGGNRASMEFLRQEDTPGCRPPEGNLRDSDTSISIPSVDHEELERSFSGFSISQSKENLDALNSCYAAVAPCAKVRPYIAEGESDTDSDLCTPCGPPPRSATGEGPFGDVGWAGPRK
# Target: hKCNQ2/3 (Homo sapiens, UniProt O43525+O43526)
# Assay: Fluorescence assay using a voltage sensitive dye (fluorimetry)
# Details: CHO-K1 cells expressing KCNQ2/3, Table 3
# Description: Fluorescence Assay using a Voltage Sensitive Dye
# […] CHO-K1 cells expressing KCNQ2/3 channels are cultivated adherently at 37° C., 5% CO2 and 95% humidity in cell culture bottles (e.g. 80 cm^2 TC flasks, Nunc) with DMEM-high glucose (Sigma Aldrich, D7777) including 10% FCS (PAN Biotech, e.g. 3302-P270521) or alternatively MEM Alpha Medium (1×, liquid, Invitrogen, #22571), 10% fetal calf serum (FCS) (Invitrogen, #10270-106, heat-inactivated) and the necessary selection antibiotics.
# Before being sown out for the measurements, the cells are washed with a 1×DPBS buffer without Ca^2+/Mg^2+ (e.g. Invitrogen, #14190-094) and detached from the bottom of the culture vessel by means of Accutase (PAA Laboratories, #L11-007) (incubation with Accutase for 15 min at 37° C.). The cell count then present is determined using a CASY™ cell counter (TCC model, Schärfe System) in order subsequently to apply, depending on the density optimization for the individual cell line, 20,000-30,000 cells/well/100 μl of the described nutrient medium to 96-well measuring plates of the Corning™ CellBIND™ type (Flat Clear Bottom Black Polystyrene Microplates, #3340). […]
# The fluorescence measurements are carried out with a BMG Labtech FLUOstar™, BMG Labtech NOVOstar™ or BMG Labtech POLARstar™ instrument (525 nm excitation, 560 nm emission, Bottom Read mode). […]
structure (smiles),measurement,setting,value
O=C(CCC(=O)N1CCc2sccc2C1c1cccc(F)c1)NCc1cccc(C(F)(F)F)c1 (centres unmarked),Fluorimetry % Efficacy @ 10 μM (reti-gabine = 100%),"10 μM, relative to retigabine = 100%",103%
same,EC50,read-out: Fluorimetry EC50,357 nM
